From article PMC11637191, “The pH-dependence of efflux ratios determined with bidirectional transport assays across cellular monolayers” (International Journal of Pharmaceutics: X, 2024)

Test system: MDCK-MDR1 cells
Assay: Comparison of Papp,B-A with and without inhibitor in MDCK-MDR1 cells (own and literature data)
Settings: calculated from literature Papp,B⟶A and Papp with inhibitor; pH 7.4 iso-method

- Factor difference: 2
SMILES: CC(C)CN(C[C@@H](O)[C@H](Cc1ccccc1)NC(=O)O[C@H]1CCOC1)S(=O)(=O)c1ccc(N)cc1 [Amprenavir]
